This is an account of results in patent publication US12233083B2, “Methods for the use of 5′-adenosine diphosphate ribose (ADPR)” (Invirsa, Inc., priority 2018, dated 2025).

Amino acid sequences for entries named in this document (tags omitted).
UniProt Q8N6T7, whole entry: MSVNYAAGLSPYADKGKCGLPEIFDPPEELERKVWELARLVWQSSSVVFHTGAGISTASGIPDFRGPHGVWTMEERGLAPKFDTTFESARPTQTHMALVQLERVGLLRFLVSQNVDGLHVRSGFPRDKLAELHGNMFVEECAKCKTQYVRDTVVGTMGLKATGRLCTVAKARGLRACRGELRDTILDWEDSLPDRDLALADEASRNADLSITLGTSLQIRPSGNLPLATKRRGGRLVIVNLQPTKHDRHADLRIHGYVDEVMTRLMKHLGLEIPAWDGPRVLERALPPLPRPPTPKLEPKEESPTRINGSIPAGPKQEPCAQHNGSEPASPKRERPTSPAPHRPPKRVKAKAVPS

Where two headings read alike, the source gives them in different places.

The test system of one test is cytokeratin 12. To be noted: 60 μM.
A further test concerns Pax6 (isoforms 5a and 6). Put plainly: Pax6 expression by western blot in human corneal epithelial cells. The test is classed as cell-based. The note with it: 60 μM. The procedure: Serum starvation media was aspirated and cells were treated with corresponding Li2-ADPR treatment at 60 μM in serum starvation media. […] Supernatants were collected and total protein concentration for each sample was measured using spectrophotometric methods.
Western Blot: Samples were prepared in 2× Laemmli sample buffer and boiled at 95° C. for 5 minutes. […] Proteins are electrophoresed at 125V for approximately 50 minutes then transferred to nitrocellulose.
A general note: In western blotting, separated proteins are transferred to a membrane and probed.

Test [1] concerns the target purified recombinant GST-SIRT6 protein (Homo sapiens, UniProt Q8N6T7). To be noted: 0.1 and 1 μM, repeat study. The method, then: This first set of studies was performed using a Western blot method (Rahnasto-Rilla, 2016, Methods Mol. Biol., 1436:259-269) for the in vitro evaluation of Sirt6 deacetylation activity. […] Acetylation level was detected with anti-H3K9Ac antibody and normalized to total H3 histone (FIG. 5 (b)).

For the next test, the system named is p53. The note with it: 60 μM.
The test system of the next test is Sirt6. The note with it: 60 μM, 60 minutes.

Regarding `Nc1ncnc2c1ncn2[C@@H]1O[C@H](COP(=O)([O-])OP(=O)([O-])OC[C@H]2OC(O)[C@H](O)[C@@H]2O)[C@@H](O)[C@H]1O.[Li+].[Li+]` (stereo partly drawn) [Li2-ADPR, dilithium ADPR], the “cytokeratin 12 dimer form relative to baseline” value is 139% with cytokeratin 12 (30 minutes), 219% in the test on cytokeratin 12 (60 minutes) and 201% in the test with cytokeratin 12 (120 minutes). Besides, the “cytokeratin 12 monomer form relative to baseline” value with cytokeratin 12 (30 minutes) stood at 269%; with cytokeratin 12 (60 minutes), 789%; in the test with cytokeratin 12 (120 minutes), 505%. Moreover, the “Pax6 isoform 5a protein concentration relative to baseline” value is 188% with Pax6 (isoforms 5a and 6) (30 minutes); 584% with Pax6 (isoforms 5a and 6) (60 minutes); 206% in the test with Pax6 (isoforms 5a and 6) (two hours). For the same compound, the “Pax6 isoform 6 protein concentration relative to baseline” value in the test on Pax6 (isoforms 5a and 6) (30 minutes) is 179%; with Pax6 (isoforms 5a and 6) (60 minutes) it was 302%; in the test on Pax6 (isoforms 5a and 6) (two hours) it was 197%. For the same compound, the “ratio of H3K9Ac to total H3 (H3K9Ac/H3)” value in test [1] is “significantly reduced”. Moreover, the “p53 protein concentration relative to baseline (No Treat lane)” value in the test with p53 (15 minutes) is given as 313%; in the test on p53 (30 minutes) it was 535%; in the test with p53 (60 minutes) it was 407%; in the test with p53 (120 minutes), 510%. Further, the “Sirt6 protein concentration relative to baseline (No Treat lane)” value in the test on Sirt6 is recorded as 135%.
